Structures are written as SMILES. The list shows a part of the results, in another mix than the full data. These assays gave more results; the selection is not random.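 Where inhibition never reached the appropriate level, the endpoint shown equals the highest concentration tested. Otherwise, values were interpolated linearly from a five-concentration, 48-hour dose response in 96-well plates. GI50: concentration for 50% inhibition of growth.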 The list shows a part of the results. For most assays here, no stated cut-off is given here; in the data, active = GI50 up to about 1.1 µM and inactive = higher. For part of these data: Results with a measured potency or affinity are listed apart.

Test systems include BT-549; Hs-578T; K562; SR; M14; RPMI-8226; SW-620; A498; A549; CAKI-1; CCRF-CEM; COLO 205; DLD-1; DMS-114; DMS-273; EKVX; HCC 2998; HCT-116; HCT-15; HL-60; HOP-18; HOP-62; HOP-92; HT-29; IGROV-1; KM-20L2; KM12; LOX IMVI; M19-MEL; MCF7; MOLT-4; Malme-3M; NCI-H226; NCI-H322M; NCI-H460; NCI-H522; OVCAR-3; OVCAR-4; OVCAR-8; SF-268; SF-295; SF-539; SK-MEL-28; SK-MEL-2; SK-MEL-5; SK-OV-3; SN12C; SNB-19; SNB-75; SNB-78; U-251; UACC-257; UACC-62; UO-31; XF498; 786-0; ACHN; DU-145; MDA-MB-231; MDA-MB-435; MDA-N; NCI/ADR-RES; OVCAR-5; PC-3; T47D; TK-10.

Holding throughout (experiment): NCI tumour cell line growth inhibition, 48 h

As to `CC1=CC2OC3CC4OC(=O)/C=C\C=C\C(=O)OCCC(C)C(O)C(=O)OCC2(CC1O)C4(C)C31CO1` (stereo unspecified), the GI50 in the test with BT-549, in the test on Hs-578T and in the test with K562 was active: < 0.001 µM throughout.

Consider `CC1=C[C@H]2O[C@@H]3[C@H](O)[C@@H](O)[C@](C)(C2(COC(=O)CCl)CC1)[C@@]31CO1` (stereo partly specified), for which the GI50 in the test with SR is active: 0.0101 µM.

Consider `Nc1c([N+](=O)[O-])cc([N+](=O)[O-])c(-c2nnc(-c3c([N+](=O)[O-])cc([N+](=O)[O-])c(N)c3[N+](=O)[O-])s2)c1[N+](=O)[O-]`, for which, in the test with M14, the GI50 was inactive: 1.27 µM.

For `CC(=O)OC1(C)CC(=O)OCC23CCC(C)=CC2OC2CC(OC(=O)/C=C\C=C\C(C(C)O)OCC1O)C3(C)C21CO1` (stereo unspecified), the GI50 in the test on RPMI-8226 is active: 0.0597 µM.

Take `O=C(NCC(F)([N+](=O)[O-])[N+](=O)[O-])N(CC(F)([N+](=O)[O-])[N+](=O)[O-])CC(F)([N+](=O)[O-])[N+](=O)[O-]`: in the test with SW-620, the GI50 was inactive: 1.55 µM.

With `CC1=C[C@H]2O[C@@H]3[C@H](O)[C@@H](O)[C@](C)([C@@]2(O)CC1)[C@]31CO1`, the GI50 was active: 0.169 µM in the test with A498; active: 0.264 µM in the test on A549; active: 0.541 µM with CAKI-1; active: 0.205 µM with CCRF-CEM; active: 0.281 µM in the test on COLO 205; active: 0.191 µM in the test with DLD-1. Moreover, the GI50 with DMS-114 was active: 0.156 µM; in the test on DMS-273, active: 0.222 µM; in the test with EKVX, active: 0.656 µM; with HCC 2998, active: 0.21 µM; in the test on HCT-116, active: 0.191 µM; with HCT-15, active: 0.236 µM. In addition, the GI50 with HL-60 is active: 0.185 µM; with HOP-18, active: 0.746 µM; with HOP-62, active: 0.242 µM; in the test on HOP-92, active: 0.172 µM; in the test on HT-29, active: 0.345 µM; in the test with IGROV-1, active: 0.21 µM. For the same molecule, the GI50 in the test on K562 is active: 0.178 µM; in the test with KM-20L2 it was active: 0.243 µM; in the test with KM12, active: 0.237 µM; in the test on LOX IMVI, active: 0.145 µM; with M19-MEL, active: 0.157 µM; in the test with MCF7, active: 0.189 µM. Further, the GI50 in the test on MOLT-4 was active: 0.169 µM; with Malme-3M, active: 0.163 µM; with NCI-H226 it was active: 0.24 µM; in the test on NCI-H322M, active: 0.414 µM; in the test with NCI-H460 it was active: 0.196 µM; with NCI-H522 it was active: 0.164 µM. Further, the GI50 with OVCAR-3 was active: 0.211 µM; in the test with OVCAR-4, active: 0.188 µM; in the test with OVCAR-8 it was active: 0.263 µM; in the test with RPMI-8226, active: 0.239 µM; in the test with SF-268, active: 0.279 µM; with SF-295, active: 0.225 µM. For the same molecule, the GI50 in the test on SF-539 was active: 0.217 µM; with SK-MEL-28 it was active: 0.198 µM; in the test on SK-MEL-2 it was active: 0.845 µM; with SK-MEL-5, active: 0.107 µM; in the test with SK-OV-3 it was active: 0.279 µM; with SN12C, active: 0.336 µM. Moreover, the GI50 in the test with SNB-19 is active: 0.186 µM; in the test with SNB-75, active: 0.207 µM; in the test with SNB-78 it was active: 0.294 µM; in the test on SW-620, active: 0.25 µM; with U-251, active: 0.181 µM; with UACC-257, active: 0.24 µM. The GI50 with UACC-62 was active: 0.222 µM; with UO-31, active: 0.385 µM; in the test on XF498, active: 0.239 µM.

On to `Cc1c([N+](=O)[O-])cc([N+](=O)[O-])c(-c2c([N+](=O)[O-])cc([N+](=O)[O-])c(C)c2[N+](=O)[O-])c1[N+](=O)[O-]`, for which the GI50 with IGROV-1 was inactive: 1.47 µM.

In the case of `N1=C(c2nnn[nH]2)NNC(c2nnn[nH]2)=N1`, the GI50 with 786-0, in the test with A498, with A549, with ACHN, in the test on BT-549 and with CAKI-1 was inactive: > 100 µM in each case. Further, the GI50 in the test on COLO 205, in the test with DU-145, with EKVX, in the test on HCT-116, in the test on HCT-15 and in the test with HOP-62 was inactive: > 100 µM in each case. For the same molecule, the GI50 with HOP-92, with HT-29, in the test with Hs-578T, with IGROV-1, with K562 and with KM12 was inactive: > 100 µM throughout. The GI50 with LOX IMVI was inactive: 43.6 µM; in the test on M14, inactive: > 100 µM; in the test on MCF7, inactive: > 100 µM; in the test with MDA-MB-231 it was inactive: > 100 µM; in the test on MDA-MB-435 it was inactive: > 100 µM; with MDA-N, inactive: > 100 µM. Further, the GI50 in the test on Malme-3M, with NCI-H226, in the test on NCI-H322M, in the test on NCI-H460, in the test on NCI-H522 and in the test with NCI/ADR-RES was inactive: > 100 µM in each case. Moreover, the GI50 with OVCAR-3, with OVCAR-4, in the test on OVCAR-5, with OVCAR-8, with PC-3 and in the test with RPMI-8226 was inactive: > 100 µM throughout. Besides, the GI50 with SF-268, in the test with SF-295, in the test with SF-539, with SK-MEL-28, with SK-MEL-2 and in the test with SK-MEL-5 was inactive: > 100 µM throughout. The GI50 in the test on SK-OV-3, with SN12C, in the test on SNB-19, in the test on SNB-75, with SW-620 and with T47D was inactive: > 100 µM in each case. In addition, the GI50 with TK-10, in the test on U-251, in the test on UACC-257, in the test with UACC-62 and in the test with UO-31 was inactive: > 100 µM throughout.

On to `CCCCCCCCCCCCCCC[C@@H]1C[N+](C)(C)CCO[P@@](C)(=O)O1`, for which the GI50 in the test with MOLT-4 is inactive: 1.33 µM; in the test on SR it was active: 0.653 µM.

In the case of `O=[N+]([O-])C(F)(CN(COCN(CC(F)([N+](=O)[O-])[N+](=O)[O-])CC(F)([N+](=O)[O-])[N+](=O)[O-])CC(F)([N+](=O)[O-])[N+](=O)[O-])[N+](=O)[O-]`, the GI50 with Malme-3M is inactive: 1.62 µM.

Regarding `CCN(CCO)CCO.Oc1c(Cl)c(Cl)c(Cl)c(Cl)c1Cl`, the GI50 in the test with 786-0 is inactive: 22.3 µM; with A498, inactive: 20.2 µM; in the test with A549, inactive: 22.4 µM; with ACHN, inactive: 18.6 µM; with BT-549, inactive: 20.7 µM; in the test on CAKI-1, inactive: 36.4 µM. Moreover, the GI50 in the test on COLO 205 was inactive: 21.3 µM; with DU-145, inactive: 30.5 µM; with EKVX it was inactive: 12.5 µM; in the test on HCC 2998 it was inactive: 17.9 µM; in the test on HCT-116, inactive: 16.3 µM; in the test with HCT-15, inactive: 17 µM. Besides, the GI50 in the test with HOP-62 is inactive: 21.3 µM; in the test on HOP-92 it was inactive: 23.7 µM; in the test with HT-29, inactive: 18.2 µM; with Hs-578T, inactive: 33.3 µM; with IGROV-1 it was inactive: 14.4 µM; with K562, inactive: 33.3 µM. Further, the GI50 in the test on KM12 was inactive: 19.5 µM; in the test with LOX IMVI it was inactive: 18.1 µM; in the test with M14, inactive: 20.1 µM; with MCF7, inactive: 29.7 µM; in the test with MDA-MB-231, inactive: 19.5 µM; in the test on MDA-MB-435, inactive: 29 µM. The GI50 in the test on MDA-N is inactive: 22.8 µM; in the test on MOLT-4 it was inactive: 22.9 µM; in the test on Malme-3M, inactive: 18 µM; in the test with NCI-H322M it was inactive: 18 µM; in the test on NCI-H460, inactive: 19 µM; in the test on NCI-H522, inactive: 23.1 µM. Moreover, the GI50 in the test on NCI/ADR-RES was inactive: 20.6 µM; in the test on OVCAR-3, inactive: 17.9 µM; in the test on OVCAR-4, inactive: 30.9 µM; with OVCAR-5, inactive: 16.4 µM; with OVCAR-8 it was inactive: 30.9 µM; in the test with PC-3, inactive: 21.7 µM. In addition, the GI50 is inactive: 29.4 µM with RPMI-8226; inactive: 29.8 µM in the test on SF-268; inactive: 19.7 µM with SF-295; inactive: 21.5 µM in the test with SF-539; inactive: 25.3 µM with SK-MEL-28; inactive: 20.4 µM with SK-MEL-2. The GI50 in the test on SK-MEL-5 was inactive: 13.7 µM; with SK-OV-3 it was inactive: 26.3 µM; in the test on SN12C, inactive: 20.4 µM; with SNB-19, inactive: 31.4 µM; in the test on SNB-75, inactive: 25.9 µM; in the test on SR, inactive: 20.4 µM. Besides, the GI50 is inactive: 31.7 µM in the test on SW-620; inactive: 22.8 µM in the test on T47D; inactive: 20.8 µM with TK-10; inactive: 18.4 µM in the test with U-251; inactive: 20.7 µM in the test with UACC-257; inactive: 18.9 µM in the test with UACC-62. Further, the GI50 in the test with UO-31 was inactive: 18.5 µM.

On to `C[C@@H]1CCOC(=O)/C=C/C=C\C(=O)O[C@@H]2C[C@H]3O[C@@H]4[C@@H]5OC5(C)CC[C@]4(COC(=O)[C@H]1O)[C@]2(C)[C@@]31CO1` (stereo partly specified), for which the GI50 in the test with Hs-578T was active: < 0.01 µM.

These data come from ChEMBL document CHEMBL1201862, “PubChem BioAssay data set” (2004).
